Reference: ChEMBL document CHEMBL2384918, “Identification of Selective Nanomolar Inhibitors of the Human Neuraminidase, NEU4” (ACS Med Chem Lett, 2013)
pIC50: −log10 of the molar value.

Molecular target: T1, Sialidase-3 (Homo sapiens, UniProt Q9UQ49)
T1 sequence (Q9UQ49 whole entry): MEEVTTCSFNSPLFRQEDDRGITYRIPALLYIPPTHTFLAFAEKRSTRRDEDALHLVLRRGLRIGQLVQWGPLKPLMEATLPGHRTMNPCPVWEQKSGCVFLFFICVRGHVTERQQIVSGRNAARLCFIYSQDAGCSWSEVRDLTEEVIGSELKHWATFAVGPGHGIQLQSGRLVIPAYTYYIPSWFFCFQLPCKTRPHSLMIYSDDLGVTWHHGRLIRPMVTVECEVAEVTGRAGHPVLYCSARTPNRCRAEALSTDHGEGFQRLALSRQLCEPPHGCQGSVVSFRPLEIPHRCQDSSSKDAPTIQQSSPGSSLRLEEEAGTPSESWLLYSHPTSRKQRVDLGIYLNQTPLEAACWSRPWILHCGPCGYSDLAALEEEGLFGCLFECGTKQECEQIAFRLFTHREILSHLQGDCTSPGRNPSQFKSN
Experiment: Inhibition of human NEU3 using 4-MU-NANA as substrate preincubated for 15 mins before substrate addition measured after 30 mins by fluorescence plate reader analysis

- pIC50: 3.74
Structure (SMILES): CC(=O)N[C@H]1[C@H]([C@H](O)[C@H](O)Cn2cc(C(C)(C)O)nn2)OC(C(=O)O)=C[C@@H]1O
